A word on the IC50: it is the point on the concentration scale where inhibition reaches its midpoint. A word on the Cmax: it is the maximum level reached in the sampled fluid or tissue. In general, Tmax refers to the time at which the peak concentration occurs.

Chains of the proteins cited; added tags and fusions are not shown.
UniProt P30518, whole entry: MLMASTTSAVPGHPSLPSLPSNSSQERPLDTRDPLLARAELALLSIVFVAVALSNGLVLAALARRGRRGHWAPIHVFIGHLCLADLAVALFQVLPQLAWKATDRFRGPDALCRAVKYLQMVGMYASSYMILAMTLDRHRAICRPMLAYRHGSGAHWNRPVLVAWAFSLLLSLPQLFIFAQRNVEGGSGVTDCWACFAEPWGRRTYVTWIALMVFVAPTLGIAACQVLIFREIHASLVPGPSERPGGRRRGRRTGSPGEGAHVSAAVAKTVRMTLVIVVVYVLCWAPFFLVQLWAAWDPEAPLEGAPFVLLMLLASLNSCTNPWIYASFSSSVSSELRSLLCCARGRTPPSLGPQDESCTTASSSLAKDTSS

Data set [1] deals with Arginine vasopressin receptor 2 (AVPR2) (Homo sapiens, UniProt P30518). As to the kind of experiment: Arginine vasopressin receptor 2 (AVPR2) receptor cAMP assay in Flpin-CHO-AVPR2 cells. To be noted: arginine vasopressin stimulation. A general note: Changes in cAMP serve as a functional read-out for many G protein-coupled receptors.
The nature of data set [2]: Pharmacokinetic study in beagles (Test Example 5), intravenous drip and intragastric administration. To be noted: Compound 1b disodium salt 1 mg/kg i.v. drip over 1 h, mean value.
Where [3] appears, read: molecule detected Compound 1b disodium salt.

The compound `Cc1ccccc1C(=O)Nc1ccc(C(=O)N2CCCC(OP(=O)(O)O)c3cc(Cl)ccc32)c(C)c1` (stereo not drawn) came in with an IC50 in data set [1] of 47 nM. Besides, in data set [2] (setting [3]), the AUC0-t was found to be 913 ng·h/mL, the Cmax was found to be 709 ng/mL, the Tmax amounted to 1 h and the t1/2 stood at 0.697 h. In data set [2] (molecule detected Tolvaptan), the AUC0-t was found to be 212 ng·h/mL, the peak concentration (Cmax) worked out at 102 ng/mL, the Tmax is listed as 1.33 h and the t1/2 is 1.29 h.

The record behind these values is patent US12662497B2, “Benzazepine compounds, preparation method therefor and pharmaceutical use thereof” (Shanghai Senhui Medicine Co., Ltd., priority 2021, dated 2026).
